Yeast mating assay B: variants of the scFv Ab-14

Target: peptide PDVDLGDISGINAS, taken from heptad repeat 2 (HR2) of SARS-CoV-2 spike.

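The parent was found by panning a naive human phage display library on the peptide. This is the validation round: designs drawn from the data on random variants, tested in the same kind of assay. Their group label is 14L_GP_Gibbs (GP: Gaussian process model; Gibbs: Gibbs sampling; a sequence that several methods proposed may carry one label only). The scFvs were displayed on barcoded MATa yeast, the peptide on MATalpha yeast. Pairs that bind mate more often; barcode pairs of the diploids are counted by sequencing. Scores were corrected for input abundance and mapped to Kd with protein pairs of known affinity run in the same pool. Each pool was mated in six replicate cultures.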

Parent: Ab-14, a human scFv built as VH, a 15-residue (Gly4Ser)3 linker, VL. Only the CDRs of the light chain vary.
VH: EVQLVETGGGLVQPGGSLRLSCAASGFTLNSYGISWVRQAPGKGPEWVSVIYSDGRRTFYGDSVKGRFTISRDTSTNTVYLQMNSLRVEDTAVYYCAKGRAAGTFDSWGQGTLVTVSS
VL: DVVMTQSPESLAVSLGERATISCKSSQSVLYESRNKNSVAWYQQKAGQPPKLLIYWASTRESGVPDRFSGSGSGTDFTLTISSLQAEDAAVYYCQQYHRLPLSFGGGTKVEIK

Each variant is given by its three light chain CDRs, as the data file delimits them; those of the parent are KSSQSVLYESRNKNSVA, WASTRES, QQYHRLPLS. Values are log10 of the apparent Kd in nM; lower means stronger binding. The mean shown is taken over the replicates in which the pair was detected. A pair that was not seen in that replicate is written "ND"; this usually means weak binding, but a binder can also be missed. A sequence measured in both rounds can read differently, since the two assays cover different ranges. Of ten entries with the parent sequence, four were seen in most replicates (averages 0.34 to 2.37), three in one and three in none, so single entries are noisy. The authors averaged sequences with at least three values out of six and counted those with two or fewer as poor binders. Nonspecific signal, from three strains lacking the peptide, appeared in 4% of pairings of all light chain designs, centred on 2.64 (5% of these signals below 1.59); values are not corrected for it. The control count says in how many pairings with the empty strains this scFv gave a signal.

With KFEQSWLYESRNVNSVA / QASTRSS / QQYHRLPLS the result was -0.21, -0.10, -0.15, -0.32, -0.27, -0.13 (mean -0.20; controls 1 of 18).
With KMFQSWGMEQRNVNSVA / HASQRLD / QQYHRLPLS the result was 1.23, 0.95, 0.14, 0.85, 0.40, 1.13 (mean 0.78; controls 0 of 18).
With KCSQSVLQESRNKNNVA / EASQRES / QQYHRLPLS the result was 0.27, 0.65, 0.25, 0.24, 0.21, 0.51 (mean 0.36; controls 4 of 18).
With KAMVSWLYWSRNQNSVA / NASQREH / QQYHRLPLS the result was ND, 2.28, ND, ND, ND, ND (controls 1 of 18).
With KLDPSDLGESRNKNSVA / HASQREI / QQYHQLPLS the result was 0.01, 0.17, -0.25, -0.14, -0.13, -0.07 (mean -0.07; controls 2 of 18).
With KVSQEMLYESRMINSVA / NASQRES / QQYHRLPLS the result was 0.07, 0.21, -0.14, 0.10, 0.03, 0.08 (mean 0.06; controls 1 of 18).
With KLSQSMLYEERNKNNVA / SASQREW / QQYHRLPLS the result was -0.33, -0.49, -0.49, -0.57, -0.37, -0.42 (mean -0.45; controls 2 of 18).
With KSSGSQQYEDRNKNSVA / HASQRES / QQYHRLPLS the result was 0.50, 0.46, 0.35, 0.20, 0.42, 0.62 (mean 0.42; controls 0 of 18).
With KLSQEMEYESRNKNSVA / QASERES / QDYHRLPLQ the result was 0.15, 0.12, -0.03, -0.14, 0.07, 0.14 (mean 0.05; controls 3 of 18).
With KLSMSVLMEQRNVNSVA / SANTREE / QQYHRLPLS the result was -0.37, -0.49, -0.55, -0.53, -0.42, -0.36 (mean -0.45; controls 1 of 18).
With KMQQSEGMESRNVNSVA / HASQRLD / QQYHRLPLS the result was 0.15, 0.17, -0.19, -0.33, -0.24, 0.12 (mean -0.06; controls 0 of 18).
With KQSQSVLYGERNGNSVA / NASQRLS / QQYHRLPLS the result was 1.78, 1.48, 1.62, 1.49, 2.07, 0.92 (mean 1.56; controls 0 of 18).
With KISGSYLGLSRNWNAVA / HASTREQ / QQYHRLPLS the result was 0.66, 0.80, 0.86, 0.55, 0.79, 0.95 (mean 0.77; controls 3 of 18).
With KLSYGNLYESRNKNSVA / EASTRCQ / QQYHRLPLS the result was 0.58, 0.65, 1.29, 0.50, 0.81, 0.50 (mean 0.72; controls 0 of 18).
With KISQSVLGEQRAQNSVA / EASTRES / QQYHRLPLS the result was ND, 1.06, ND, 0.60, 1.73, 2.50 (mean 1.47; controls 0 of 18).
With VLQQLGLYEPRNKNSVA / SASTRLP / QQYHRLPLS the result was 0.79, 0.50, 0.44, 0.12, 0.26, 0.55 (mean 0.44; controls 1 of 18).
With KMSQSMLYESRAFNSVA / NASNRES / QQYHRLPLS the result was 0.97, 0.73, 0.82, 0.74, 0.66, 0.88 (mean 0.80; controls 1 of 18).
With KFEMSQLYESRNMNSVA / NASEREQ / QQYHRLPLS the result was -0.14, -0.21, -0.25, -0.37, -0.35, -0.12 (mean -0.24; controls 0 of 18).
With KCDQSQDYESRNKNNVA / NASQRES / QQYHRLPLS the result was 0.16, 0.07, -0.16, -0.21, 0.03, 0.10 (mean 0.00; controls 1 of 18).
With KLQWSWLYMSRNWNSVA / DASQRES / QQYHRLPLS the result was 0.74, 0.36, 1.10, 0.57, 0.65, 1.15 (mean 0.76; controls 0 of 18).
With KQSQSVLYGERNSNSVA / NASYRLS / QQYHRLPLS the result was 0.20, 0.04, 0.16, 0.00, 0.09, 0.53 (mean 0.17; controls 2 of 18).
With KLVQSVDYEPRNKQSVA / DASTRLS / QQYHRLPLS the result was 0.25, 0.45, 0.20, -0.03, 0.25, 0.53 (mean 0.27; controls 1 of 18).
With ISSQSVMGEERNKNSVA / AASTREV / QQYHRLPLS the result was 0.89, 0.47, 0.71, 0.78, 0.73, 0.76 (mean 0.72; controls 1 of 18).
With KLDISHLYESRNWNSVA / NASTREE / QQYHRLPLS the result was 0.03, -0.02, -0.09, -0.13, -0.04, -0.02 (mean -0.05; controls 1 of 18).
With LLSGSMQYESRNKNSVA / DASTRES / QAYHRLPLS the result was 0.49, 0.39, 0.23, 0.25, 0.28, 0.41 (mean 0.34; controls 0 of 18).
With KLQQLMLYESRMKNNVA / NASTRGS / QQYHRLPLS the result was 1.35, 1.11, 0.20, 0.23, 1.02, 0.88 (mean 0.80; controls 1 of 18).
With KLMQSWDYESRNKNSVA / NASKRMQ / QQYHRLPLS the result was 0.63, 0.35, 0.15, 0.18, 0.48, 0.50 (mean 0.38; controls 6 of 18).
With KVDQSQLYENRMKNSVA / DASLRES / QQYHRLPLS the result was 0.13, 0.12, -0.25, -0.24, -0.21, -0.12 (mean -0.09; controls 1 of 18).
With KVDQEVDYQSRNKNSVA / DASQREE / QQYHRLPLS the result was -0.05, -0.13, -0.17, -0.21, -0.04, -0.02 (mean -0.10; controls 1 of 18).
With KLSMSELYESRMKNSVA / EASQREE / QQYHRLPLS the result was 0.06, -0.01, -0.18, -0.20, -0.10, 0.03 (mean -0.07; controls 0 of 18).
With KLFQSELYESRQANNVA / NASQRES / QQYHRLPLS the result was 0.14, -0.07, 0.23, -0.02, 0.02, 0.04 (mean 0.06; controls 0 of 18).
With KMSQSVEGLDRNWNSVA / YASTREM / QQYHRLPLS the result was 0.36, 0.38, 0.00, 0.40, 0.17, 0.13 (mean 0.24; controls 2 of 18).
With KFFQSQLYEQRNQNSVA / SASTRLD / QQYHRLPLS the result was 0.11, -0.12, 0.15, 0.15, 0.29, 0.11 (mean 0.12; controls 1 of 18).
With KLSQSEPYESRNKNSVA / NASYRCS / QQYHRLPLH the result was 1.03, 1.05, 0.85, 0.86, 1.38, 1.51 (mean 1.11; controls 1 of 18).
With KQSQLVGMESRNMNSVA / NASTREE / QQYHRLPLS the result was 0.98, 0.42, 0.52, 0.23, 0.54, 0.77 (mean 0.58; controls 2 of 18).
With KFEQQDLYSSRNVNSVA / NASTRSQ / QQYHRLPLS the result was 0.07, -0.31, -0.24, -0.39, -0.34, -0.08 (mean -0.22; controls 2 of 18).
With KVSQSVCYEDRLKNNVA / NASDRMS / QQYHRLPLS the result was 0.48, 0.10, -0.17, 0.22, 0.18, 0.27 (mean 0.18; controls 0 of 18).
With KLMQSDLYESRNVNNVA / QASQREL / QQYHRLPLS the result was 0.66, 0.75, 0.20, 0.72, 0.69, 0.52 (mean 0.59; controls 1 of 18).
With KISESWLYEPLNSNSVA / NASTRQM / QQYHRLPLS the result was -0.06, 0.14, -0.08, -0.01, -0.20, 0.55 (mean 0.06; controls 1 of 18).
With KLWMSVNGESRNKNAVA / SASTREQ / QQYHRLPLS the result was 0.06, -0.20, 0.14, -0.20, -0.37, 0.01 (mean -0.09; controls 0 of 18).
With KLSSSWLMESRNMNSVA / QASQRER / QQYHRLPLS the result was 0.00, 0.14, -0.17, -0.28, 0.00, 0.17 (mean -0.02; controls 1 of 18).
With KLSQSVDYESRQKNSVA / NASTRLS / QQYHRLPLS the result was 0.89, 0.53, 0.55, 0.68, 0.34, 0.99 (mean 0.66; controls 1 of 18).
With KWQWSWLYESRNKNSVA / EGSTRES / QQYHRLPLS the result was 0.57, 0.56, 0.66, 0.80, 0.73, 0.78 (mean 0.68; controls 1 of 18).
With KLMWSDQYWSRNKNSVA / GASTRES / QQYHRLPLS the result was 0.00, -0.01, -0.24, -0.13, -0.23, 0.07 (mean -0.09; controls 3 of 18).
With KVSQLELYESRNANNVA / NASTREN / QQYHRLPLS the result was 0.35, 0.24, 0.13, -0.03, -0.05, 0.36 (mean 0.17; controls 1 of 18).
With HSYQSGLYESRNQNSVA / SASMRSS / QQYHRLPLS the result was 0.56, 0.59, 0.50, 0.44, 0.84, 0.85 (mean 0.63; controls 1 of 18).
With KVSMSVLYESRNKNSVA / NASTRES / QQYHRLPLI the result was 0.32, 0.51, 0.08, 0.14, -0.11, 0.32 (mean 0.21; controls 1 of 18).
With KLSASQLYWSRNFNSVA / QASTRET / QQYHRLPLS the result was 1.58, 1.43, 3.27, 1.04, 1.97, 1.13 (mean 1.74; controls 1 of 18).

For reference, 5 entries of the list once more:

{"CDR-L1": "KLSQSVDYESRQKNSVA", "CDR-L2": "NASTRLS", "CDR-L3": "QQYHRLPLS", "replicates, log10 nM": "0.89, 0.53, 0.55, 0.68, 0.34, 0.99", "log10 Kd (nM), mean": "0.66", "empty controls": "1/18"}
{"CDR-L1": "KLSQSEPYESRNKNSVA", "CDR-L2": "NASYRCS", "CDR-L3": "QQYHRLPLH", "replicates, log10 nM": "1.03, 1.05, 0.85, 0.86, 1.38, 1.51", "log10 Kd (nM), mean": "1.11", "empty controls": "1/18"}
{"CDR-L1": "KVDQSQLYENRMKNSVA", "CDR-L2": "DASLRES", "CDR-L3": "QQYHRLPLS", "replicates, log10 nM": "0.13, 0.12, -0.25, -0.24, -0.21, -0.12", "log10 Kd (nM), mean": "-0.09", "empty controls": "1/18"}
{"CDR-L1": "KLQQLMLYESRMKNNVA", "CDR-L2": "NASTRGS", "CDR-L3": "QQYHRLPLS", "replicates, log10 nM": "1.35, 1.11, 0.20, 0.23, 1.02, 0.88", "log10 Kd (nM), mean": "0.80", "empty controls": "1/18"}
{"CDR-L1": "KISQSVLGEQRAQNSVA", "CDR-L2": "EASTRES", "CDR-L3": "QQYHRLPLS", "replicates, log10 nM": "ND, 1.06, ND, 0.60, 1.73, 2.50", "log10 Kd (nM), mean": "1.47", "empty controls": "0/18"}

From the AlphaSeq antibody data of Li et al. 2023 (doi:10.1038/s41467-023-39022-2), copy in the FLAb collection.